Data on one compound can be found in ChEMBL document CHEMBL1148451, “Receptor flexibility in the in silico screening of reagents in the S1' pocket of human collagenase” (J Med Chem, 2004).

For this assay, the target named is T1, Interstitial collagenase (Homo sapiens, UniProt P03956).
T1 sequence (P03956 whole entry): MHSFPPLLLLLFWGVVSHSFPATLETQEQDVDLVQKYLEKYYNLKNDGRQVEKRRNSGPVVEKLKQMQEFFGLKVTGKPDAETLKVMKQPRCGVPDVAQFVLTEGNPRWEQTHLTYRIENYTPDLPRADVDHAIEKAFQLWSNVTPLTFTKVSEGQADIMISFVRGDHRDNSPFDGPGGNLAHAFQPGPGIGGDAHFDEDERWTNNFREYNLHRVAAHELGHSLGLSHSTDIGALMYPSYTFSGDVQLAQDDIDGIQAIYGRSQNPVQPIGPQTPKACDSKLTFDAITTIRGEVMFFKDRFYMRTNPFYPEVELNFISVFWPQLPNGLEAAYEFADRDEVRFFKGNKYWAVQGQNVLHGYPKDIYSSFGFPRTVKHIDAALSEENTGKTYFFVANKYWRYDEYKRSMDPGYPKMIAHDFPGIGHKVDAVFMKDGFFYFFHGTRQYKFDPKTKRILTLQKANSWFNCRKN
Put plainly: Inhibition of human matrix metalloprotease-1.

Usually IC50 stands for the point on the concentration scale where inhibition reaches its midpoint. Read a high IC50 as a need for much substance. In turn, `COc1ccc(S(=O)(=O)N(Cc2cccnc2)[C@@H](C(=O)NO)C(C)C)cc1` [CGS-27023A] registered an IC50 of 27 nM.
